The target of this experiment is T1, hOTR (Homo sapiens, UniProt P30559).
T1 construct: expressed in transfected cells
T1 sequence (P30559 1-389): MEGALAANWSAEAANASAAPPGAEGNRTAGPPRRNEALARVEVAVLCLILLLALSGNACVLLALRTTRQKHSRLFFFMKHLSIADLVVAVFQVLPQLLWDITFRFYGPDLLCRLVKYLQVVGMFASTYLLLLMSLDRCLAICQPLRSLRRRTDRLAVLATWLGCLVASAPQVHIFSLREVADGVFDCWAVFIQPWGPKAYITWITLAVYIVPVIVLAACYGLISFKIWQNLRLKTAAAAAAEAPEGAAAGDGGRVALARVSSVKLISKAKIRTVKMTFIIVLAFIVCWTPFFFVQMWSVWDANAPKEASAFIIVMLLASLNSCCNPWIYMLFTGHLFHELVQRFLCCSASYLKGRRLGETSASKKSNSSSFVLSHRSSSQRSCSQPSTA
As to the kind of experiment: Radioligand displacement and saturation binding, membranes of HEK293 cells stably expressing hOTR, [3H]-OT. The following applies: saturation binding, stable cell line.

Substance “oxytocin [[3H]-OT, oxytocin [tyrosyl-3,5-3H], reference compound]” gave a dissociation constant (Kd) of 0.65 nM.

The record behind these values is paper PMC12603982 (Angewandte Chemie (International Ed. in English), 2025).
